For 1 compound, inhibition results are on record in PubChem BioAssay AID743258 (The Scripps Research Institute Molecular Screening Center, 2014).

Sequences of proteins named here, by UniProt entry; tags and fusion partners are left off.
UniProt P19174, whole entry: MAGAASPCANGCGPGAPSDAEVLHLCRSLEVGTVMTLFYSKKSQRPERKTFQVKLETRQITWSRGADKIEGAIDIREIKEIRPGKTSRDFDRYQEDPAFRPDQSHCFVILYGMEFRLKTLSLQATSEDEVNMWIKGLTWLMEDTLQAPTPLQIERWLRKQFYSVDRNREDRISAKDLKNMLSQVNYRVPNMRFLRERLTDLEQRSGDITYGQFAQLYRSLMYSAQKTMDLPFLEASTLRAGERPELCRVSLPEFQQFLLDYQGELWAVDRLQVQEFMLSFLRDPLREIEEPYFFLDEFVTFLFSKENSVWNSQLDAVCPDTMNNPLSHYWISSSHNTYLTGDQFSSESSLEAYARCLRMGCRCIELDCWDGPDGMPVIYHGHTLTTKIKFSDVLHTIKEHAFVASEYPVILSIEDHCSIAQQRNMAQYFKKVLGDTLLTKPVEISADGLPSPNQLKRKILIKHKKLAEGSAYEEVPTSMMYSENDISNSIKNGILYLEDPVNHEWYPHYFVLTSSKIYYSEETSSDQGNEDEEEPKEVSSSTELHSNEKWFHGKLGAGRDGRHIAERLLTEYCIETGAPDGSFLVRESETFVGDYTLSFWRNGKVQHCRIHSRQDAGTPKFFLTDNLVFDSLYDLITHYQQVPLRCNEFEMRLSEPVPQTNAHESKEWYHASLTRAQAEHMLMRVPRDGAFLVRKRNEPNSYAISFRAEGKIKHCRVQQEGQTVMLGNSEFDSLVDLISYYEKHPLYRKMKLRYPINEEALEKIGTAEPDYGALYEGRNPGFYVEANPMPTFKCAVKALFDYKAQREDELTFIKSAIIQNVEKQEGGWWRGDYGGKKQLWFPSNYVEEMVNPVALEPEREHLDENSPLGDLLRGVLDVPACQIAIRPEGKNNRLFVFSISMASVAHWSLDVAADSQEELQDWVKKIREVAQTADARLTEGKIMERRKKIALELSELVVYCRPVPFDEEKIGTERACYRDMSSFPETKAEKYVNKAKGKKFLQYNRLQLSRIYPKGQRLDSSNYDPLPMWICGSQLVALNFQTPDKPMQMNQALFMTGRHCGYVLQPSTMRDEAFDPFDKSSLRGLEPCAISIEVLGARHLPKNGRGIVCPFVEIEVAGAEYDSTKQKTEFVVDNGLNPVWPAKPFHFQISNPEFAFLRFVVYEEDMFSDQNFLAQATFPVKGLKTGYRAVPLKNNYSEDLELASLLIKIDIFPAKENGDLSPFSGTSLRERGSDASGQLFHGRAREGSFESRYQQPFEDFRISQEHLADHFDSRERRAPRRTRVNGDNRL

One may read the inhibition as the percentage by which the read-out fell short of the control.

The entries are a selection whose mix differs from that of the whole data set. The source made the active and inactive calls. No stated cut-off is given here; in the data, active means inhibition above about 9.5%; inactive means the rest.

In this test the target is 1-phosphatidylinositol 4,5-bisphosphate phosphodiesterase gamma-1 (Homo sapiens) (UniProt P19174). Description: PLC-gamma1 enzyme inhibitors, counter-screen for PLC-beta3 inhibitor project, biochemical, fluorescence (AID 743258). Conditions: purified PLC-gamma1, fluorogenic substrate, at 12.3 µM, stronger effect = higher value. On the technique in general: Counterscreens check selectivity or assay interference.
For `CCC(c1nnnn1C1CCCCC1)N1CCC(n2c(=O)[nH]c3ccccc32)CC1` (stereo unspecified), the inhibition was active: 10.3%.
